The experiment has as its system MDA-MB-231 cells. As to the kind of experiment: Clonogenic growth assay. Type of experiment: cell-based, human. As to conditions: 10 μM for 48 h, nine days of growth.

Consider `O=C(CCCCCCNC(=O)c1ccc(NC(=O)CCCCCCCNC(=O)COc2cccc3c2C(=O)N(C2CCC(=O)NC2=O)C3=O)cc1)NO` (stereo not shown) [Compound A6], for which the “reduction of colonies (clonogenic growth)” value was “did not result in a significant reduction in clonogenic growth”.

The values are drawn from paper PMC12091851, “Replacing a Cereblon Ligand by a DDB1 and CUL4 Associated Factor 11 (DCAF11) Recruiter Converts a Selective Histone Deacetylase 6 PROTAC into a Pan‐Degrader” (Chemmedchem, 2025).
